Values of other authors as cited in paper PMC2675940 (Journal of medicinal chemistry, 2008).

Sequences of proteins named here, by UniProt entry; tags and fusion partners are left off.
UniProt P25103, whole entry: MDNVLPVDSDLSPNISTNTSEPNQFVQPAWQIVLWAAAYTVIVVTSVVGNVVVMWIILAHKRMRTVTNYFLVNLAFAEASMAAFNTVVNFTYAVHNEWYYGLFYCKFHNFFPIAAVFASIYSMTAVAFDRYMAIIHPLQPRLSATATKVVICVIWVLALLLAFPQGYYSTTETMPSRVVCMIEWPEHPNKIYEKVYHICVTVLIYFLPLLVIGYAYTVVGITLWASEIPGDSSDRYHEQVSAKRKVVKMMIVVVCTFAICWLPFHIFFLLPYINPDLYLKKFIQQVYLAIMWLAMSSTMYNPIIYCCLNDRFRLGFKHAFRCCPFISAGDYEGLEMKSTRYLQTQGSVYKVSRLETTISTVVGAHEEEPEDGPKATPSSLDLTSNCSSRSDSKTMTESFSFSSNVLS

Biological target: human NK1 receptor (hNK1) (Homo sapiens, UniProt P25103)

Compound: CC(=O)N[C@@H](Cc1c[nH]c2ccccc12)C(=O)OCc1cc(C)cc(C)c1
- fold reduced affinity for the human NK1 receptor as compared to 4: 16
